These results are taken from patent publication US20250205361A1, “TREATMENT […] FOR T[…] […] ACT VIA AN INT[…] TARGET” (priority 2023, published 2025).

This experiment relates to STAT3. Nature of the experiment: STAT3 RNA quantification (qRT-PCR) in A2058 cells, depot release. Format: cell-based, human. Here is the method:
Cells were cultured in DMEM (PAN-Biotech GmbH) supplemented with 10% fetal bovine serum (FBS) (PAN-Biotech GmbH) and Pen/Strep (PAN-Biotech GmbH) at 37° C. and 5% CO2. Cells were seeded in a 24-well plate at 30.000 cells/well in 600 μL/well and incubated overnight at 37° C. The next day, 10× concentrated compound-mix samples were prepared in PBS, which contained the compounds as indicated in the experimental set up (FIG. 4A, 4B, 4C, 4D), i.e. PBS, an antisense oligonucleotide (ASO) and/or saponin component at 10× final concentration. Additional 210 μL culture medium was added to the wells, followed by the addition of 90 μL compound-mix/well. […]
RNA Isolation and Gene Expression Analysis from A431 and A2058 Cells RNA from cells was isolated using TRIzoI™ Reagent (Thermo Scientific) according to the manufacturer's instruction. […] STAT3 expression levels and levels of housekeeping genes were determined using quantitative real-time PCR assays (qRT-PCR) using iTaq™ Universal SYBR@Green Supermix (BioRad) and the Light Cycler 480 II (Roche Diagnostics) with specific DNA primers, listed in Table A3. […]
A general note: Real-time PCR tracks product formation cycle by cycle.

As to “Cet-AH-SO1861: cetuximab - SO1861 conjugate, SO1861 to Ab ratio 3.9”, where the note is “STAT3 ASO loading 24 hrs, wash, saponin component directly or after 6 hr or 24 hr resting period”, the STAT3 levels remaining result was “not effective”. The “residual STAT3 expression” value (co-administration of STAT3 ASO plus saponin component 48 hrs) is recorded as “did not enhance STAT3 silencing”.
